miR-21 reporter: miR-21 reporter, rising signal. HeLa miR-21 FLuc reporter, luciferase, 48 h. Potency, µM (highest dose often 38.3 µM), for the others: at the highest dose reporter change, positive = more light. 340,000 tested, under 10 active. AID 2288; active = well fitted rising curve with a large enough effect; inconclusive = small, poorly fitted or top-dose-only effect; inactive = no such curve, though single readings can be large or run the other way;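 further: % of control where 0% means no effect; miR-21 action dims this reporter so a rising signal means less miR-21 action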
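HeLa cells endogenously expressing miR-21, stably carrying CMV-driven firefly luciferase with a downstream miR-21 binding site, 2000 cells/well. Titrations up to approximately 40 uM, 48 hours; luciferase luminescence read.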
PTHR1 ag: PTHR1 (human) receptor agonism; Potency, µM (top dose mostly 115 µM), for the others: top-dose activation, actives largely listed as activators; Q03431; AID 743266; 410,000 tested, 0.075% active; HEK293 GP2 PTHR1 cells, GloSensor cAMP luminescence, 1 h; further: potency means the concentration at half of the fitted maximal effect; nearly all actives have a fitted effect of over 55% in size
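HEK-293-derived GP2 cells expressing PTHR1 and a GloSensor cAMP reporter, 3,000/well, plated overnight, given luciferin plus IBMX (each 0.5 mM as added) for 1 h at 37 °C, then compound for 1 h at 37 °C. Luminescence was read after 15 min at room temperature.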
12-LOX inh: inhibitors of human 12S-lipoxygenase ALOX12; P18054; purified 12hLO, xylenol orange hydroperoxide absorbance; Potency, µM (titrated, usually from 108 µM), for inactives: at the highest dose activity change, negative = inhibition, hits mostly inhibitors; 580,000 tested, 1.1% active; further: potency means the concentration at half of the fitted maximal effect; on the % scale 0 is the no-effect control and ±100 the full control effect
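Purified human 12hLO (150 nM final) in 25 mM Hepes, 0.01% Triton X-100, pH 7.0 was preincubated 15 min at room temperature with compound. Then 40 uM arachidonic acid was added, 30 min. Hydroperoxide was read by Fe-XO absorbance ratio 573/405 nm.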
ERG-DNA inh: inhibitors of human ERG Ets domain-DNA interaction. Potency, µM (highest dose often 76.9 µM), inactives show top-dose FP activity, negative = inhibition, most hits filed as inhibitors. AID 624246. 370,000 tested, 0.028% active. fluorescence polarization, His-ERG Ets domain / labelled DNA. P11308; active means well fitted inhibition curve with a large enough effect in the polarisation, with a control signal flat; inconclusive means small, poorly fitted or top-dose-only effect, or effect the other way, or a change in a side signal; inactive means no such curve, though single readings can be large or run the other way; the % refers to the polarisation;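 further: polarization taken with two DNA probes labelled with fluorescein and Texas red; potency means the concentration at half of the fitted maximal effect; % of control where 0% means no effect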
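His-tagged ERG Ets domain (1 uM in the protein solution; 300mM KCl, 50mM Tris-HCl, 1mM EDTA, 1mM DTT, pH 7.5) received compound, then a probe mix of 5 nM fluorescein-DNA and 100nM Texas-615-DNA. Fluorescence polarization was read for both dyes.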
PINK1 modulator: modulators of PINK1 expression; PINK1 immunofluorescence, high-content cytometry, 24 h; Potency, µM (series often up to 76.6 µM), for inactives: at the top dose activation (PINK1 increase), hits mostly activators; AID 624263; 410,000 tested, 0.2% active; active means well fitted activation curve with a large enough effect; inconclusive means small, poorly fitted or top-dose-only effect; cell line not stated here; further: potency means the concentration at half of the fitted maximal effect; % of control where 0% means no effect; nearly all actives have a fitted effect of over 65% in size
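Cells are seeded, rested 12 hours, then given compound at five concentrations or DMSO for 24 hours. After fixation, blocking and antibody staining, PINK1 amount and mitochondrial localization are scored; CCCP serves as control.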
Giardia killer: Giardia lamblia killing | 340,000 tested, 0.15% active | Giardia lamblia trophozoite viability | activity change, % at 7.66 µM, hits read low; in the data active means activity change below about -80%; inconclusive means between about -30% and that limit;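 further: parasites exposed to compound for two days anaerobically before the ATP read; on the % scale 0 is the no-effect control and ±100 the full control effect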
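Compounds were tested on trophozoites seeded at 100 cells/well and held 48 hrs at 37 deg C anaerobically. An ATP-based luminescent kit measured the remaining live cells.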
An asterisk follows results filed as active; [ ] = remark or other dose. Only some compounds are listed: those with a hit (about 1.3% of all), similar ones and a draw of the others. Unless noted, the call rests on the fitted dose curve; in most records, active means well fitted curve in the direction sought with a large enough effect; inconclusive means small, poorly fitted or top-dose-only effect, or another doubt; inactive means no such curve, though single readings can be large; an effect the other way counts as inactive or inconclusive.

For Cc1c(Cc2ccccc2)c(=O)oc2c(O)c(O)ccc12 the results were miR-21 reporter -20.0%, PTHR1 ag inactive, 12-LOX inh 3.98µM*, ERG-DNA inh 2.3%, PINK1 modulator 1.3% and Giardia killer -13.8.
For COc1ccccc1NC(=O)C1=C(C)Nc2nc(-c3ccco3)nn2C1c1ccccc1 (stereo not given) the results were miR-21 reporter 11.0%, PTHR1 ag inactive, 12-LOX inh -24.5%, ERG-DNA inh 3.5% and PINK1 modulator 0.8%.
COCC(=O)N1CCC2(CCCN(Cc3ccccc3OC)C2)CC1 was read as 12-LOX inh -7.4%[57.4 µM] and PINK1 modulator 0.2%.
Screening N/C(=N\OC(=O)Cc1ccc(Cl)cc1)c1cccnc1 returned miR-21 reporter -26.9%, PTHR1 ag -10.4%[57.5 µM], 12-LOX inh 12.9%, ERG-DNA inh -4.3%, PINK1 modulator 9.7%[38.3 µM] and Giardia killer -4.7.
CC(=O)Nc1ccc(-c2csc(NC3CC3)n2)c(F)c1 was read as 12-LOX inh 14.1µM*.
`Clc1ccc(-c2csc(NC3CC3)n2)cc1Cl` gave 12-LOX inh 10µM*.
For Clc1cccc(-c2csc(NC3CC3)n2)c1 the results were 12-LOX inh -26.4%.
`Clc1ccc(-c2csc(NC3CC3)n2)cc1` gave 12-LOX inh 8.91µM*.
For O=C(CCCNC(=O)c1ccc(Cl)cc1)Nc1cccc(S(=O)(=O)N2CCCCC2)c1 the results were PTHR1 ag -34.8%, 12-LOX inh 38.2%, ERG-DNA inh 13.2%, PINK1 modulator 1.5% and Giardia killer -18.0.
`Cc1cccc(CNC(=O)c2ccc(Cn3c(SCc4cccc(F)c4)nc4cccnc43)cc2)c1` gave miR-21 reporter 10.9%, PTHR1 ag -13.7%, 12-LOX inh inconclusive, ERG-DNA inh -3.3% and PINK1 modulator 1.1%.
For CN(C)c1ccc(C(=S)N2CCCCCC2)cc1 the results were miR-21 reporter -25.8%, PTHR1 ag -78.8%, 12-LOX inh 39.8µM*, ERG-DNA inh 5.1%, PINK1 modulator -1.7%[38.3 µM] and Giardia killer 27.7.
For Cc1cccn2c(=O)c3cc(S(=O)(=O)c4ccc(Br)cc4)c(=N)n(C4CCCCC4)c3nc12 the results were miR-21 reporter -3.4%, PTHR1 ag -6.3%, 12-LOX inh 6.5%, ERG-DNA inh -16.2%, PINK1 modulator 1.4% and Giardia killer 1.2.
CN(C)[C@@H]1CN(C(=O)c2cccc(C(F)(F)F)c2)C[C@H]1CO was read as 12-LOX inh 32.3%.
For CCCn1nc(C(=O)Nc2cc(S(=O)(=O)Nc3ccc(OC)cc3)ccc2O)c2ccccc2c1=O the results were PTHR1 ag 7.6%, 12-LOX inh -12.8%, ERG-DNA inh -3.3%, PINK1 modulator 1.9% and Giardia killer 9.1.
For c1ccc(CCCN2CCN(c3ccccn3)CC2)cc1 the results were miR-21 reporter -13.3%, PTHR1 ag -49.3%, 12-LOX inh 4.47µM*, ERG-DNA inh 8.3%, PINK1 modulator 0.7% and Giardia killer -19.1.
`COC(=O)CN1C(=O)C(O)(CC(=O)c2cccc(Br)c2)c2ccccc21` (stereo not given) gave miR-21 reporter -2.8%, PTHR1 ag inactive, 12-LOX inh 3.0%, ERG-DNA inh 10.0%, PINK1 modulator 9.0% and Giardia killer 8.6.
`COc1ccc(CCNC(=O)c2c([S-])n(-c3ccc(C)cc3)c3cccc[n+]23)cc1` gave miR-21 reporter -14.4%, PTHR1 ag inactive, 12-LOX inh 35.5µM*, ERG-DNA inh 4.1%, PINK1 modulator 1.1% and Giardia killer 3.3.
For CCc1ccc2n(-c3ccc(OC)cc3)c([S-])c(C(=O)Nc3cc(C)cc(C)c3)[n+]2c1 the results were miR-21 reporter -4.2%, PTHR1 ag -2.1%, 12-LOX inh 9.1%, ERG-DNA inh 9.9%, PINK1 modulator 7.5% and Giardia killer 13.6.
COc1ccc(-c2cc(C(=O)NCC3CCCO3)c3cc(C(C)C)ccc3n2)cc1 (stereo not given) was read as miR-21 reporter -4.0%, PTHR1 ag -25.3%, 12-LOX inh inconclusive, ERG-DNA inh 11.5%, PINK1 modulator 11.8% and Giardia killer 17.8.
S=C(NNC(=S)Nc1ccc(Cl)cc1)NNc1ccccc1 was read as PTHR1 ag inactive, 12-LOX inh 44.7µM* and PINK1 modulator 1.1%.
O=C(CN1c2ccccc2Sc2ccccc21)NNC(=S)Nc1ccc(Cl)cc1Cl was read as miR-21 reporter 18.2%, PTHR1 ag -28.0%, 12-LOX inh -1.5%, ERG-DNA inh -2.6%, PINK1 modulator inconclusive and Giardia killer 1.9.
`S=C(NNC(=S)Nc1ccccc1)Nc1ccccc1` gave miR-21 reporter -66.5%, PTHR1 ag -21.0%, 12-LOX inh inconclusive, ERG-DNA inh 1.8%, PINK1 modulator inconclusive and Giardia killer 21.2.
Cc1ccc(NC(=S)NNC(=S)NNc2ccccc2)cc1C was read as PTHR1 ag inactive, 12-LOX inh 39.8µM* and PINK1 modulator inconclusive.
Screening O=C(CN1c2ccccc2Sc2ccccc21)NNC(=S)Nc1ccc(Cl)cc1 returned miR-21 reporter 9.3%, PTHR1 ag -25.1%, 12-LOX inh 14.1µM*, ERG-DNA inh 2.4%, PINK1 modulator inconclusive and Giardia killer 7.5.
For CCc1nn(CC(=O)NCCCN2CCN(CC)CC2)c(=O)c2cc3occc3n12 the results were miR-21 reporter -3.1%, PTHR1 ag -20.6%, 12-LOX inh 9.3%, ERG-DNA inh -4.0%, PINK1 modulator -0.1% and Giardia killer -4.6.
Screening O=[N+]([O-])c1ccc(CSc2nnc(-c3cnccn3)o2)cc1 returned miR-21 reporter -10.1%, PTHR1 ag inactive, 12-LOX inh -13.9%, ERG-DNA inh -9.4%, PINK1 modulator -0.7% and Giardia killer inconclusive.
For CC1CCCCN1CCCNc1c(C=O)c(=O)[nH]c2ccccc12 (stereo not given) the results were miR-21 reporter -2.1%, PTHR1 ag inactive, 12-LOX inh inconclusive, ERG-DNA inh -2.2%, PINK1 modulator 3.1% and Giardia killer 6.2.
For CCn1c(N)c(C(=O)NCCCOC)sc1=S the results were miR-21 reporter -10.7%, PTHR1 ag inactive, 12-LOX inh 39.8µM*, ERG-DNA inh -4.1%, PINK1 modulator -0.9% and Giardia killer -26.5.
`COc1ccc(-n2nc3cc(C)c(N)cc3n2)cc1Cl` gave miR-21 reporter -53.6%, PTHR1 ag -7.4%, 12-LOX inh 8.91µM*, ERG-DNA inh -11.0%, PINK1 modulator 5.9% and Giardia killer 18.0.

A draw from above in order of length of the SMILES, lowest first:
`COc1ccc(-n2nc3cc(C)c(N)cc3n2)cc1Cl` gave miR-21 reporter -53.6%, PTHR1 ag -7.4%, 12-LOX inh 8.91µM*, ERG-DNA inh -11.0%, PINK1 modulator 5.9% and Giardia killer 18.0.
Screening O=C(CN1c2ccccc2Sc2ccccc21)NNC(=S)Nc1ccc(Cl)cc1 returned miR-21 reporter 9.3%, PTHR1 ag -25.1%, 12-LOX inh 14.1µM*, ERG-DNA inh 2.4%, PINK1 modulator inconclusive and Giardia killer 7.5.
For CCc1nn(CC(=O)NCCCN2CCN(CC)CC2)c(=O)c2cc3occc3n12 the results were miR-21 reporter -3.1%, PTHR1 ag -20.6%, 12-LOX inh 9.3%, ERG-DNA inh -4.0%, PINK1 modulator -0.1% and Giardia killer -4.6.

Compounds listed so far with bromine (2):
For Cc1cccn2c(=O)c3cc(S(=O)(=O)c4ccc(Br)cc4)c(=N)n(C4CCCCC4)c3nc12 the results were miR-21 reporter -3.4%, PTHR1 ag -6.3%, 12-LOX inh 6.5%, ERG-DNA inh -16.2%, PINK1 modulator 1.4% and Giardia killer 1.2.
`COC(=O)CN1C(=O)C(O)(CC(=O)c2cccc(Br)c2)c2ccccc21` (stereo not given) gave miR-21 reporter -2.8%, PTHR1 ag inactive, 12-LOX inh 3.0%, ERG-DNA inh 10.0%, PINK1 modulator 9.0% and Giardia killer 8.6.
